# Experimental data as given in PubChem BioAssay AID1321 (The Scripps Research Institute Molecular Screening Center, 2008).
# Sequences of proteins named here, by UniProt entry; tags and fusion partners are left off. A change or cut given only in a name is not applied to a line headed by its entry.
# UniProt P30291: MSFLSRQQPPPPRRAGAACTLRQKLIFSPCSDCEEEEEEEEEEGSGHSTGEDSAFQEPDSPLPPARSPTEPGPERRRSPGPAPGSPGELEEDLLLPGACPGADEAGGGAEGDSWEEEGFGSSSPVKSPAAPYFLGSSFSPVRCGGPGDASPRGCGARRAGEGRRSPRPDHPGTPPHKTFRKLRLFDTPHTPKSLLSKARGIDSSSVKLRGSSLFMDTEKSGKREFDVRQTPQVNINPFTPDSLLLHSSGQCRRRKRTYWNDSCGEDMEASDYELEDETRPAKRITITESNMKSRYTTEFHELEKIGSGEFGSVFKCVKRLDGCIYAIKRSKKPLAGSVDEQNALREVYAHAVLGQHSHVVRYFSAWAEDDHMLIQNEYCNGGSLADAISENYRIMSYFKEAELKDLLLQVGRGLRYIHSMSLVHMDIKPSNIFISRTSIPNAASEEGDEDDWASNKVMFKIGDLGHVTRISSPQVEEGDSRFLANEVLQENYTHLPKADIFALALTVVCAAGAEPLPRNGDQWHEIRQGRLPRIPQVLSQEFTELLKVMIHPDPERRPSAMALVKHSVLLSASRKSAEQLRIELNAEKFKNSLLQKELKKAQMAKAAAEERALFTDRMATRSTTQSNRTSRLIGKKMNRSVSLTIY
# “And” between values parts separate entries of the source, which are not always exact repeats. Identical values can stand only once. The list shows a part of the results, in another mix than the full data. The source made the active and inactive calls.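 Rule for the calls: active = activation above the mean of all tested compounds plus 3 SD, set per screening run (cut at about 8.8% in these data); inactive = the rest.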
# Molecular target: Wee1-like protein kinase (Homo sapiens) (UniProt P30291)
# Experiment: compounds stabilizing Wee1-luciferase fusion – cell-based, HeLa, Wee1K328M-luciferase, luminescence, primary screen (AID 1321);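 note: cells exposed to compound for 20 h before luminescence read; 0% = DMSO alone and 100% = MG132 at 30 µM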
# Details: HeLa Luc-Wee1K328M stability, at 5 µM, stronger effect = higher value, 100% = proteasome inhibitor MG132 effect
row,SMILES,reporter increase
1,Nc1cc(N)c2nonc2c1[N+](=O)[O-],inactive: -1.04%
2,CC(C)CC(=O)NC(Sc1ccc(Cl)cc1)C(Cl)(Cl)Cl (stereo not drawn),inactive: -2.75%
3,O=C(NC(Sc1ccncn1)C(Cl)(Cl)Cl)c1ccccc1 (stereo not drawn),inactive: 1.51%
4,Cc1c2non([O-])c-2c(C)[n+](=O)[n+]1[O-],inactive: -3.42%
5,Oc1ccccc1CNc1ccccn1,inactive: 2.04%
6,NC(=O)c1cc([N+](=O)[O-])cc([N+](=O)[O-])c1N,inactive: 5.63%
7,Cc1ccc(N/C(=N/P(=O)(N2CCOCC2)N2CCOCC2)N2CCOCC2)cc1,inactive: -2.69%
8,Cc1ccc(OP(=O)(Nc2nccs2)Oc2ccc(C)cc2)cc1,inactive: -1.13%
9,COc1ccccc1OP(=O)(Nc1ccc(C)cn1)Oc1ccccc1OC,inactive: 3.06%
10,CN1CCCC(OC(=O)C(c2ccccc2)c2ccccc2)C1 (stereo not drawn),inactive: -2.44%
11,Clc1ccc(Cl)c(NC2=NCC(CBr)S2)c1 (stereo not drawn),inactive: -0.33%
12,CCN(N=Nc1nonc1N)c1nonc1N,inactive: 0.55%
13,Nc1cccc2ccc([As](=O)(O)O)cc12,inactive: -0.4%
14,CC(=O)Nc1ccc([As](=O)(O)O)cc1,inactive: 6.43%
15,O=C(O)c1ccccc1[As](=O)(O)O,active: 11.5%
16,O=P(Nc1nc2ccc(Cl)cc2s1)(c1ccccc1)c1ccccc1,inactive: -0.26%
17,Cc1ccc(NP(=O)(Oc2ccccc2F)Oc2ccccc2F)nc1,inactive: -2.88%
18,Cc1cc(SC(NC(=O)c2ccc(F)cc2)C(Cl)(Cl)Cl)ncn1 (stereo not drawn),inactive: -1.11%
19,CCOP(=O)(Nc1ccccc1)OCC,inactive: -0.84% and inactive: 0.94%
20,CC(C)(C)C(=O)NC(Sc1ccncn1)C(Cl)(Cl)Cl (stereo not drawn),inactive: -1.58%
21,O=[N+]([O-])c1ncn(CCn2ncnc2[N+](=O)[O-])n1,inactive: -1.7%
22,O=[N+]([O-])c1cccc(NC2=NCC(CBr)S2)c1 (stereo not drawn),inactive: 4.19%
23,O=C(O)CNc1ccc([As](=O)(O)O)cc1,inactive: 2.35%
24,O=C(Nc1cc([As](=O)(O)O)ccc1O)c1ccccc1,inactive: -3.41%
25,C[N+]1=C2C=CC=CC=C2SC12C([N+](=O)[O-])=CC([N+](=O)[O-])=C[C-]2[N+](=O)[O-] (stereo not drawn),inactive: -4.03%
26,Nc1ccc([As](=O)(O)c2ccc(N)cc2)cc1,inactive: 3.92%

row,SMILES,reporter increase
1,CCN(/C(=N/P(=O)(N1CCOCC1)N1CCOCC1)N1CCOCC1)c1ccc(OC)cc1,inactive: 1.43%
2,CN(C)C(=O)OCCc1n(C)cc[n+]1C,inactive: -1.15%
3,CC(C)=N/N=C(\N)N[N+](=O)[O-],inactive: 1.62%
4,CC1CCN(C(=O)Oc2c(Cl)cc(Cl)c3cccnc23)CC1,inactive: -1.62%
5,COc1ccc(C2=NCC(CBr)S2)cc1 (stereo not drawn),inactive: -2.19%
6,CC(=O)N1C2C3N(C(C)=O)C1C1N(C(C)=O)C(C(N1C(C)=O)N3C(C)=O)N2C(C)=O,inactive: -0.85%
7,O=[N+]([O-])c1cccc2n[nH]nc12,inactive: 0.99%
8,O=[N+]([O-])c1cc([N+](=O)[O-])c(CCNc2ccccc2)c([N+](=O)[O-])c1,inactive: 0.25%
9,CCc1nc2c(n1)c1c(non1O)c1c2no[n+]1[O-],inactive: -2.6%
10,Cc1ccc(NP(=O)(Oc2ccccc2)Oc2ccccc2)nc1,inactive: -0.08%
11,O=P(Nc1nccs1)(c1ccccc1)c1ccccc1,inactive: 0.93%
12,CC(C)C(=O)NC(Sc1ccccc1)C(Cl)(Cl)Cl (stereo not drawn),inactive: -4.73%
13,c1nnnn1CCn1cnnn1,inactive: -0.39%
14,O=[N+]([O-])c1ncn(CCn2cnc([N+](=O)[O-])n2)n1,inactive: -2.99%
15,CC(=O)NC(SC(=S)N(C)C)C(Cl)(Cl)Cl (stereo not drawn),inactive: -0.42%
16,O=[As](O)(c1ccccc1)c1ccc(O)cc1,inactive: 1.39%
17,C(Cc1nn[nH]n1)Cc1nn[nH]n1,inactive: 2.97%
18,Nc1ccc([As](=O)(O)c2ccc([N+](=O)[O-])cc2)cc1,inactive: -1.37%
19,O=C(OC1CN2CCC1CC2)c1cccc(Cl)c1 (stereo not drawn),inactive: -0.49%
20,O=P(Nc1ccccn1)(c1ccc(Br)cc1)c1ccc(Br)cc1,inactive: 4.05%
21,O=P(Nc1nc2ccccc2s1)(c1ccccc1)c1ccccc1,inactive: -2.44%
22,Cc1ccc(OP(=O)(Nc2ccccn2)Oc2ccc(C)cc2)cc1,inactive: 0.2%
23,CC(=O)NC(SC(=S)N(CC(C)C)CC(C)C)C(Cl)(Cl)Cl (stereo not drawn),inactive: -0.81%
24,COC(=O)c1cc2c(s1)N=C(c1ccccc1)N(C)P2(=O)N1CCOCC1 (stereo not drawn),inactive: 0.73%
25,CCC(=O)N1C2C3N(C(=O)CC)C1C1N(C(=O)CC)C(C(N1C(=O)CC)N3C(=O)CC)N2C(=O)CC,inactive: -1.41%
26,O=c1c2cc([N+](=O)[O-])ccc2[nH]c2c([N+](=O)[O-])cc([N+](=O)[O-])cc12,inactive: 0.56%

row,SMILES,reporter increase
1,CN(C)C(=O)Oc1noc2ccccc12,inactive: -0.32%
2,Cc1ccccc1OP(=O)(Nc1ccccn1)Oc1ccccc1C,inactive: 3.08%
3,O=C(NC1CCS(=O)(=O)C1)NP(=S)(Oc1ccccc1)Oc1ccccc1 (stereo not drawn),inactive: -2.37%
4,CCNC(=S)/N=C(\N)N[N+](=O)[O-],inactive: -0.43%
5,CCOC(=O)NC(Sc1ccccc1)C(Cl)(Cl)Cl (stereo not drawn),inactive: -1.23%
6,Cc1ccc(NP(=O)(Oc2cccc(C)c2)Oc2cccc(C)c2)nc1,inactive: 1.12%
7,c1ccc(-c2nn[nH]n2)c(-c2nn[nH]n2)c1,inactive: -0.08%
8,CC(=O)Nc1ccc(Oc2c([N+](=O)[O-])cc([N+](=O)[O-])cc2[N+](=O)[O-])cc1,inactive: -0.29%
9,CC(=O)Nc1ccc([As](=O)(O)O)c(O)c1,inactive: -1.81%
10,CCOc1ccc(C2=NCC(CBr)S2)cc1 (stereo not drawn),inactive: 0.95%
11,O=P1(Nc2nc3ccc(Cl)cc3s2)COc2ccccc2O1 (stereo not drawn),inactive: -2.38%
12,CC(C)(C)C(=O)NC(Sc1ccccc1)C(Cl)(Cl)Cl (stereo not drawn),inactive: 0.56%
13,CCCOP(=S)(Nc1nc(N)cc(=O)[nH]1)OCCC,inactive: 0.31%
14,Nc1cccc2c([As](=O)(O)O)cccc12,inactive: 0.95%
15,Cc1ccc(NCCc2c([N+](=O)[O-])cc([N+](=O)[O-])cc2[N+](=O)[O-])cc1,inactive: 0.63%
16,CCOP(=O)(Nc1cccc2ccccc12)OCC,inactive: -2.39%
17,COc1cc(C2NCCC3(OCCO3)C2(C)C)cc(OC)c1OC (stereo not drawn),inactive: -0.87%
18,O=[As](O)(O)c1cccnc1,inactive: 0.05%
19,COc1cc(C(=O)NCC2(N3CCOCC3)CCCCC2)cc(Cl)c1OC(C)C,inactive: 3.92%
20,O=C(OC1CN2CCC1CC2)c1ccc(Cl)cc1 (stereo not drawn),inactive: -1.66%
21,Cc1cccc(OCC(=O)OC2CN3CCC2CC3)c1 (stereo not drawn),inactive: 0.06%
22,O=[As](O)(c1cccc(O)c1)c1cccc(O)c1,inactive: 2.9%
23,O=[N+]([O-])c1ccc2c(c1)nnn2O,inactive: -1.04%
24,CCOP1(=S)c2c(C)nn(CCC#N)c2N=C(c2ccc(F)cc2)N1C (stereo not drawn),inactive: -0.96%
25,CS(=O)(=O)c1cc([N+](=O)[O-])c2no[n+]([O-])c2c1,inactive: -1.92%
26,O=P(Nc1nccs1)(Oc1ccccc1)Oc1ccccc1,inactive: 1.06%

row,SMILES,reporter increase
1,O=P(Nc1nccs1)(c1ccccc1)c1nc2ccccc2s1 (stereo not drawn),inactive: 1.98%
2,CCOP1(=S)c2c(C)nn(CCC#N)c2N=C(c2ccccc2F)N1C (stereo not drawn),inactive: -0.29%
3,O=C(O)COc1ccc([As](=O)(O)O)cc1[N+](=O)[O-],inactive: 4.42%
4,Nc1ccccc1[As](=O)(O)c1ccccc1,inactive: -2.7%
5,O=P1(Nc2ncccn2)COc2ccccc2OC1,inactive: 0.38%
6,O=[As](O)(c1cccs1)c1cccs1,inactive: -1.7%
7,Cc1ccc(OCC(=O)OC2CN3CCC2CC3)cc1 (stereo not drawn),inactive: 3.77%
8,O=P1(Nc2ccc(Br)cn2)COc2ccccc2OC1,inactive: 1.06%
9,Nc1cccc([As](=O)(O)c2ccccc2)c1,inactive: -1.07%
10,CC1CCC(C(C)C)C(OP(=O)(Nc2ccccn2)c2ccccc2)C1 (stereo not drawn),inactive: 1.12%
11,Cc1nn(-c2ccccc2)c2c1P(=O)(N1CCOCC1)N(C)C(c1ccccc1)=N2 (stereo not drawn),inactive: 0.99%
12,O=C(/C=C/c1ccccc1)OC1CN2CCC1CC2 (stereo not drawn),inactive: -3.33%
13,CN(C)C1(CNC(=O)c2ccc(S(C)(=O)=O)cc2)CCCCC1,active: 14.7%
14,CC1(CBr)Cn2c(nc3ccccc3c2=O)S1 (stereo not drawn),inactive: -0.23%
15,O=[As](O)(c1ccccc1Br)c1ccccc1Br,inactive: 0.18%
16,CN(C(=O)Cc1ccc(Cl)c(Cl)c1)[C@@H]1CCCC[C@H]1N1CCCC1,inactive: -1.8%
17,CC(C)/C=N\N=C(\N)N[N+](=O)[O-],inactive: 3.83%
18,CCOP(=O)(Nc1ccc(C)cn1)OCC,inactive: -0.98%
19,O=P1(Nc2ccccn2)COc2ccccc2OC1,inactive: -0.92%
20,CC(C)(C)C(=O)NC(Sc1ncccn1)C(Cl)(Cl)Cl (stereo not drawn),inactive: 0.11%
21,Clc1n[nH]nc1-c1nn[nH][15n]1,inactive: -3.04%
22,CCOC(=O)c1ccc(NC(=O)C(C)(CCl)SC)cc1 (stereo not drawn),inactive: -1.18%
23,CCC(C)N(CC(C)C)C(=S)SC(NC(C)=O)C(Cl)(Cl)Cl (stereo not drawn),inactive: -1.64%
24,COP1(=S)c2c(C)nn(CCC#N)c2N=C(c2ccc(F)cc2)N1C (stereo not drawn),inactive: 4.44%
25,O=C(COc1ccccc1)OC1CN2CCC1CC2 (stereo not drawn),inactive: -3.57%
